Measured values: PubChem BioAssay AID651614 (The Scripps Research Institute Molecular Screening Center, 2012)
Only a part is listed here, and it is no random draw. Calls of active or inactive are those of the source. Rule as the data show it: active = inhibition above about 44%; inactive = the rest.

Molecular target: Steroidogenic factor 1 (Homo sapiens) (UniProt Q13285)
Assay: SF1 (NR5A1) inverse agonists, counter-screen for LRH-1 inverse agonist project, cell-based, luminescence, high throughput (AID 651614);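 also: cells cotransfected with StAR promoter reporter and SF1 expression vector; 0% = vehicle on cells with receptor and 100% = vehicle on cells lacking receptor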
Settings: cell-based SF1 luciferase reporter, at 3.6 µM, active compounds read high

| SMILES | inhibition |
| --- | --- |
| O=[N+]([O-])c1cc([N+](=O)[O-])c(-c2cnn(-c3ccccc3)c2)c([N+](=O)[O-])c1 | active: 59.6% |
